We go through 68 compounds from PubChem BioAssay AID504333 (National Center for Advancing Translational Sciences (NCATS), 2011).

Amino acid sequences for entries named in this document (tags omitted). A change or cut given only in a name is not applied to a line headed by its entry.
UniProt Q9UIF8: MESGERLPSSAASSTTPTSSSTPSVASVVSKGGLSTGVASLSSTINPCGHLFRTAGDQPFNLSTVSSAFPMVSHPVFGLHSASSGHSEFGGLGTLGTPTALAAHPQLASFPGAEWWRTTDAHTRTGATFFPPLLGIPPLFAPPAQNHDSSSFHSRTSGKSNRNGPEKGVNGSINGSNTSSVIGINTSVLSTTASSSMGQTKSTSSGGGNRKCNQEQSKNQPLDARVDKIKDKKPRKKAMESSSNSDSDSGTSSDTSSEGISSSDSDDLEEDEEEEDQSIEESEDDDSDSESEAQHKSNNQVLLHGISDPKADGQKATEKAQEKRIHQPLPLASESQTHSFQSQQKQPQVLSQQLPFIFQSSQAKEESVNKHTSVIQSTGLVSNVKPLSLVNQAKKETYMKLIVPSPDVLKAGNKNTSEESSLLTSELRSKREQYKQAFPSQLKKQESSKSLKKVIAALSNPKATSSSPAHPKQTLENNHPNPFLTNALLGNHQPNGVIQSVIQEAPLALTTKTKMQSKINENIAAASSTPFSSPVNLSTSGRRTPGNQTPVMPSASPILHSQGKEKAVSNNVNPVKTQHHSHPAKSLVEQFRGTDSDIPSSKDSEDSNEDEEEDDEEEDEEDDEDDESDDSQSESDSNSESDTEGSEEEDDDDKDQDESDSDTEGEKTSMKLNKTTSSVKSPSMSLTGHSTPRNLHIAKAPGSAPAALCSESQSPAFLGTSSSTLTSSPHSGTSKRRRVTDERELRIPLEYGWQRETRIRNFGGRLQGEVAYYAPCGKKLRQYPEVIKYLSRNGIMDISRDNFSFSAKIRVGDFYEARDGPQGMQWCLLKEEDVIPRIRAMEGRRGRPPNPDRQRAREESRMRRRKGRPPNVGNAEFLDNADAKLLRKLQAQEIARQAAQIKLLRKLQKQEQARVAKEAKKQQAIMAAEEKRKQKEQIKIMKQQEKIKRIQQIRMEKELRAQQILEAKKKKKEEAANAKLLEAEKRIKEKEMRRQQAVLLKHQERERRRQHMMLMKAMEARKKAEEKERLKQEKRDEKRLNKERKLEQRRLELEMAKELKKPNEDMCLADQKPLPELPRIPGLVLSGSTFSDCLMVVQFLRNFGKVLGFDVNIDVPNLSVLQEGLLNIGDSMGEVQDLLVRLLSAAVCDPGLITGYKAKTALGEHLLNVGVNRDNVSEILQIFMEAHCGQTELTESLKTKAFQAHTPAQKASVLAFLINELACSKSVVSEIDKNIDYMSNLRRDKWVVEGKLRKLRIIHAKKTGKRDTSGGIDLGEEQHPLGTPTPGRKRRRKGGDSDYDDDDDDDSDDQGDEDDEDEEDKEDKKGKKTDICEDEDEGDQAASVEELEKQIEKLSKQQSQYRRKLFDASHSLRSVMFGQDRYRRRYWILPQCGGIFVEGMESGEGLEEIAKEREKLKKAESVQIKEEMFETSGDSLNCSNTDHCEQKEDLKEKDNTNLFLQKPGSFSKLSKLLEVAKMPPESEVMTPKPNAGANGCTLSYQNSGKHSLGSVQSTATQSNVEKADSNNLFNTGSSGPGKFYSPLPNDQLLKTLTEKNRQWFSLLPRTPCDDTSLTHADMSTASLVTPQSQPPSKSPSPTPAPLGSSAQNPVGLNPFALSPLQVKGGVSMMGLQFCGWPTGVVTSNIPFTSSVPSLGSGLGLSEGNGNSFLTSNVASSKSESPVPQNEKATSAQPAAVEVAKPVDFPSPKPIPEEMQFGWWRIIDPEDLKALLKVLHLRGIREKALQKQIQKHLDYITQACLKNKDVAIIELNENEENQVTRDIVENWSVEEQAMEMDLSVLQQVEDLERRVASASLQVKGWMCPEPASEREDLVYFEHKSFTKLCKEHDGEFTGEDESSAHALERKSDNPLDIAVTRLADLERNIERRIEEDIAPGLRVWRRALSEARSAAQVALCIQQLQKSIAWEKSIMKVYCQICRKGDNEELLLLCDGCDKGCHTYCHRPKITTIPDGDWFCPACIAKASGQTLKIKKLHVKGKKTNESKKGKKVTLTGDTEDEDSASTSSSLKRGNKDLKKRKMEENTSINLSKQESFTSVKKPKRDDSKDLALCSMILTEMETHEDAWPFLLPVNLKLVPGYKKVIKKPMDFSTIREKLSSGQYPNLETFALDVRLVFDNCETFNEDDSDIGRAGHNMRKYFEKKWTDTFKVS

The list shows a part of the results, in another mix than the full data. Results filed as inconclusive are left out. The source made the active and inactive calls. Calls come from the whole dose curve; as a rule, active = well fitted inhibition curve with a large enough effect; inconclusive = small, poorly fitted or top-dose-only effect; inactive = no such curve, though single readings can be large or run the other way.
% is set by controls: 0 for no effect and ±100 for the full control effect; potency is the fitted concentration of half-maximal effect.

This test addresses Bromodomain adjacent to zinc finger domain protein 2B (Homo sapiens) (UniProt Q9UIF8). Put plainly: qHTS Assay for Inhibitors of BAZ2B. Note: nearly all actives have a fitted effect of over 60% in size. The conditions noted are these: AlphaScreen BAZ2B-H3K14Ac peptide displacement; series mostly up to 114 µM; activity change, negative = inhibition: at the top concentration.
Consider `Cc1cc(=O)[nH]c(N[N+](=O)[O-])n1`, for which the “activity change, negative = inhibition” value was inactive: -1.95%.

For the compound `O=C(OC1CN2CCC1CC2)C12CC3CC(CC(C3)C1)C2` (stereo not drawn), the “activity change, negative = inhibition” value is inactive: 12.7%.

Turning to `Cc1c2c(nc3ccccc13)SC(C(Cl)Cl)C2` (stereo not drawn), the “activity change, negative = inhibition” value is inactive: 23.1%.

`COc1cc(I)ccc1[As](=O)(O)O`: the “activity change, negative = inhibition” value is inactive: -2.57%.

In the case of `COc1ccc2nc(NP(=O)(c3ccccc3)c3ccccc3)sc2c1`, the “activity change, negative = inhibition” value is inactive: -11.2%.

On to `COc1ccc(N/C(=N/P(=O)(N2CCOCC2)N2CCOCC2)N2CCOCC2)cc1`, for which the “activity change, negative = inhibition” value is inactive: 3.91%.

As to `COc1cc(C(=O)NCC2(N3CCOCC3)CCCCC2)ccc1OCC(C)C`, the “activity change, negative = inhibition” value is inactive: -5.94%.

With `O=[As](O)(c1ccc(O)cc1)c1ccccc1O`, the “activity change, negative = inhibition” value was inactive: -14%.

Turning to `C[As](=O)(O)c1cccc(C(=O)O)c1`, the “activity change, negative = inhibition” value is inactive: 1.94%.

`Cc1ccc2nc3c(c(C)c2c1)CC(C(Cl)Cl)S3` (stereo not drawn): the “activity change, negative = inhibition” value was inactive: 3.63%.

Turning to `Cc1ccc(OP(=O)(Nc2ccc([N+](=O)[O-])cn2)Oc2ccc(C)cc2)cc1`, the “activity change, negative = inhibition” value is inactive: -2.87%.

Take `CC(C)c1ccc(OP(=O)(Nc2ccccn2)Oc2ccccc2F)cc1` (stereo not drawn): the “activity change, negative = inhibition” value is inactive: -5.51%.

Turning to `ClCCSc1nnc(-c2cccnc2)o1`, the “activity change, negative = inhibition” value is inactive: -2.09%.

On to `CCN(CC)C(=S)SC(NC=O)C(Cl)(Cl)Cl` (stereo not drawn), for which the “activity change, negative = inhibition” value was inactive: 3.46%.

On to `CC(C)NC(=O)NP(=O)(Oc1ccccc1)Oc1ccccc1`, for which the “activity change, negative = inhibition” value was inactive: -0.781%.

For `CCOC(=O)Nc1ccc([As](=O)(O)O)c(O)c1`, the “activity change, negative = inhibition” value was inactive: -9.08%.

In the case of `Cc1cc(SC(NC(=O)c2ccccc2)C(Cl)(Cl)Cl)nc(C(C)C)n1` (stereo not drawn), the “activity change, negative = inhibition” value was inactive: -14.3%.

Take `CCCCOc1ccc(C(=O)NCC2(N3CCCCC3)CCCCC2)cc1OC`: the “activity change, negative = inhibition” value is inactive: -16.3%.

As to `CCOC(=O)Nc1cccc([As](=O)(O)O)c1`, the “activity change, negative = inhibition” value is inactive: -1.09%.

As to `O=[N+]([O-])c1ccc(Nc2ccc(Oc3ccc([N+](=O)[O-])cc3[N+](=O)[O-])cc2)c([N+](=O)[O-])c1`, the “activity change, negative = inhibition” value is inactive: -31.8%.

Take `O=P(Nc1ccccn1)(c1cccc2ccccc12)c1cccc2ccccc12`: the “activity change, negative = inhibition” value is inactive: -22.6%.

`Cc1cc(SC(NC=O)C(Cl)(Cl)Cl)ncn1` (stereo not drawn): the Potency is active: 44.7 µM.

Regarding `COP1(=S)c2c(C)nn(CCC#N)c2N=C(c2ccc(F)cc2)N1C` (stereo not drawn), the “activity change, negative = inhibition” value is inactive: 4.36%.

With `O=C(Nc1ccncc1[N+](=O)[O-])c1ccc([N+](=O)[O-])cc1[N+](=O)[O-]`, the “activity change, negative = inhibition” value is inactive: 2.14%.

With `O=C(COc1ccccc1)OC1CN2CCC1CC2` (stereo not drawn), the “activity change, negative = inhibition” value was inactive: -3.3%.

Turning to `CCOC(=O)c1ccc(NC(=O)C(C)(CCl)SC)cc1` (stereo not drawn), the “activity change, negative = inhibition” value was inactive: -23.6%.

On to `O=C(OC1CN2CCC1CC2)c1cccc([N+](=O)[O-])c1` (stereo not drawn), for which the “activity change, negative = inhibition” value was inactive: 4.09%.

As to `CCC(C)N(CC(C)C)C(=S)SC(NC(C)=O)C(Cl)(Cl)Cl` (stereo not drawn), the “activity change, negative = inhibition” value was inactive: 0.209%.

As for `CCOP(=O)(Nc1ccc(C)cn1)OCC`, the “activity change, negative = inhibition” value was inactive: 1.44%.

`CCOP(=O)(NC(=NC(C)c1ccccc1)NC(C)c1ccccc1)OCC` (stereo not drawn): the “activity change, negative = inhibition” value was inactive: -35.1%.

On to `O=P1(Nc2ccccn2)COc2ccccc2OC1`, for which the “activity change, negative = inhibition” value was inactive: -1.47%.

On to `CCC1=CC2Cc3nc4ccc(Cl)cc4c(N)c3C(C1)C2` (stereo not drawn), for which the “activity change, negative = inhibition” value was inactive: -3.63%.

For `CC(C)(C)C(=O)NC(Sc1ncccn1)C(Cl)(Cl)Cl` (stereo not drawn), the Potency was active: 79.4 µM.

On to `Clc1n[nH]nc1-c1nn[nH][15n]1`, for which the Potency is active: 50.1 µM.

For the compound `COc1ccccc1CNC(=O)COC(=O)C(O)(c1ccccc1)c1ccccc1`, the “activity change, negative = inhibition” value is inactive: 11.9%.

For the compound `O=[As](O)(c1ccccc1Br)c1ccccc1Br`, the “activity change, negative = inhibition” value was inactive: -0.0992%.

For `CC(C)/C=N\N=C(\N)N[N+](=O)[O-]`, the “activity change, negative = inhibition” value was inactive: -27.4%.

Consider `CN(C(=O)Cc1ccc(Cl)c(Cl)c1)[C@@H]1CCCC[C@H]1N1CCCC1`, for which the “activity change, negative = inhibition” value was inactive: -21.9%.

Take `CC1CCC(C(C)C)C(OP(=O)(Nc2ccccn2)c2ccccc2)C1` (stereo not drawn): the “activity change, negative = inhibition” value was inactive: -35.3%.

As to `Cc1ccc(C(=O)OC2CN3CCC2CC3)cc1` (stereo not drawn), the “activity change, negative = inhibition” value was inactive: -3.02%.

Turning to `Cc1nn(-c2ccccc2)c2c1P(=O)(N1CCOCC1)N(C)C(c1ccccc1)=N2` (stereo not drawn), the “activity change, negative = inhibition” value is inactive: 7.61%.

In the case of `O=C(/C=C/c1ccccc1)OC1CN2CCC1CC2` (stereo not drawn), the “activity change, negative = inhibition” value is inactive: -10.4%.

On to `CN(C)C1(CNC(=O)c2ccc(S(C)(=O)=O)cc2)CCCCC1`, for which the “activity change, negative = inhibition” value was inactive: 1.3%.

As for `O=P1(Nc2ncccn2)COc2ccccc2OC1`, the “activity change, negative = inhibition” value is inactive: 8.34%.

With `O=P1(Nc2ccc(Br)cn2)COc2ccccc2OC1`, the “activity change, negative = inhibition” value is inactive: -19.6%.

With `NS(=O)(=O)c1cccc(NC(=O)COC(=O)C(O)(c2ccccc2)c2ccccc2)c1`, the “activity change, negative = inhibition” value is inactive: 0.777%.

Regarding `Cc1ccc(OCC(=O)OC2CN3CCC2CC3)cc1` (stereo not drawn), the “activity change, negative = inhibition” value was inactive: -3.07%.

Consider `O=[As](O)(c1cccs1)c1cccs1`, for which the “activity change, negative = inhibition” value is inactive: -10.7%.

On to `Nc1cccc([As](=O)(O)c2ccccc2)c1`, for which the “activity change, negative = inhibition” value is inactive: -14.8%.

On to `CS(=O)(=O)c1cc([N+](=O)[O-])c2no[n+]([O-])c2c1`, for which the Potency was active: 17.8 µM.

For `O=P(Nc1nccs1)(c1ccccc1)c1nc2ccccc2s1` (stereo not drawn), the Potency is active: 5.62 µM.

Regarding `O=P(Nc1nccs1)(Oc1ccccc1)Oc1ccccc1`, the “activity change, negative = inhibition” value is inactive: -28%.

With `CCOP1(=S)c2c(C)nn(CCC#N)c2N=C(c2ccccc2F)N1C` (stereo not drawn), the “activity change, negative = inhibition” value is inactive: -0.263%.

As for `Nc1ccccc1[As](=O)(O)c1ccccc1`, the “activity change, negative = inhibition” value was inactive: -2.21%.

For `O=C(O)COc1ccc([As](=O)(O)O)cc1[N+](=O)[O-]`, the “activity change, negative = inhibition” value was inactive: 9.16%.

On to `NC(=O)Nc1ccc([As](=O)(O)O)cc1`, for which the “activity change, negative = inhibition” value is inactive: -0.414%.

As for `O=[N+]([O-])c1ccc2c(c1)nnn2O`, the “activity change, negative = inhibition” value was inactive: -38.4%.

Take `CCOP1(=S)c2c(C)nn(CCC#N)c2N=C(c2ccc(F)cc2)N1C` (stereo not drawn): the “activity change, negative = inhibition” value is inactive: -19.8%.

As for `CN(C(=O)Cc1ccccc1)[C@@H]1CC[C@]2(CCCO2)C[C@H]1N1CCCC1`, the “activity change, negative = inhibition” value was inactive: -0.668%.

`N#CCCN(C(=O)COC(=O)C(O)(c1ccccc1)c1ccccc1)c1ccc(F)cc1`: the “activity change, negative = inhibition” value was inactive: 11%.

With `CS(=O)(=O)c1ccc(Cl)c(NC(=O)COC(=O)C(O)(c2ccccc2)c2ccccc2)c1`, the “activity change, negative = inhibition” value is inactive: -19.6%.

Regarding `COc1cc(C(=O)NCC2(N3CCOCC3)CCCCC2)cc(Cl)c1OC(C)C`, the “activity change, negative = inhibition” value is inactive: -5.16%.

As to `O=[As](O)(O)c1cccnc1`, the “activity change, negative = inhibition” value was inactive: -28.5%.

As for `O=C(OC1CN2CCC1CC2)c1ccc(Cl)cc1` (stereo not drawn), the “activity change, negative = inhibition” value is inactive: -1.91%.

In the case of `O=[As](O)(c1cccc(O)c1)c1cccc(O)c1`, the “activity change, negative = inhibition” value is inactive: -1.15%.

As to `Cc1cccc(OCC(=O)OC2CN3CCC2CC3)c1` (stereo not drawn), the “activity change, negative = inhibition” value was inactive: -0.985%.

Regarding `CCCOP(=S)(Nc1nc(N)cc(=O)[nH]1)OCCC`, the “activity change, negative = inhibition” value is inactive: -7.54%.

As to `Cc1ccc(NCCc2c([N+](=O)[O-])cc([N+](=O)[O-])cc2[N+](=O)[O-])cc1`, the Potency was active: 12.6 µM.
